# Curated experimental data: properties

Melting points are in °C. The boiling point refers to atmospheric pressure (760 mmHg), by the definition of the set. logP is the log10 of the octanol-water partition coefficient; higher is more lipophilic. Solubility in water is on a log10 molar scale (set defined at 25 °C). Vapor pressures (log10 mmHg) refer to near room temperature, 15 to 30 °C; higher is more volatile. The Henry's law constant is on a log10 scale in atm·m3/mol (set defined at 25 °C); higher favours air over water. Cells with "n/a" have no entry in this list.

mp (°C)	boiling point (°C)	logP (octanol/water)	water solubility (log10 mol/L)	log vapor pressure (log10 mmHg)	Henry's law constant (log10 atm·m3/mol)	structure (SMILES)	name
-29	n/a	n/a	n/a	-3.773	n/a	COCCOCCOCC(=O)O	(2-(2-Methoxyethoxy)ethoxy)acetic acid
n/a	n/a	5.62	-4.761	n/a	n/a	COC1=CCC2=C(CC[C@@H]3[C@@H]2CC[C@]2(C)[C@@H](O)CC[C@@H]32)C1	1,4-Dihydroestradiol 3-methyl ether
-63.08	257.4	n/a	n/a	n/a	n/a	COC(=O)CC(C)(C)C(Cl)CC(Cl)(Cl)C(F)(F)F (stereo not drawn)	n/a
-64.35	n/a	n/a	-6.655	n/a	n/a	CCCCC(CC)COC(=O)CSCC(=O)OCC(CC)CCCC (stereo not drawn)	Acetic acid, 2,2'-thiobis-, 1,1'-bis(2-ethylhexyl) ester
144	n/a	3.31	-4.352	n/a	n/a	CC(=O)OCC(=O)[C@H]1[C@H](C)C[C@H]2[C@@H]3C[C@H](F)C4=CC(=O)CC[C@]4(C)[C@H]3CC[C@@]21C	n/a
90	n/a	1.4	n/a	-3.378	n/a	NNc1ccc(Cl)cc1	4-Chlorophenylhydrazine
n/a	n/a	6.3	-5.747	n/a	n/a	CCC(=O)OC(OP(=O)(CCCCc1ccccc1)CC(=O)N1C[C@H](C2CCCCC2)C[C@H]1C(=O)O)C(C)C (some centres not stated)	Fosinopril
-14.4	215.6	n/a	n/a	n/a	n/a	CC1(C)[C@H](C(=O)Cl)[C@@H]1/C=C(\Cl)C(F)(F)F (relative stereo)	n/a
29.5	n/a	1.92	n/a	-3.782	n/a	CCOC(=O)c1ccnc(C(=O)OCC)c1	Diethyl pyridine-2,4-dicarboxylate
n/a	n/a	4	-5.675	n/a	n/a	CCC(CC)(CC(=O)Nc1cccc(/C=C/c2nc(C3CCC3)cs2)c1)C(=O)O	Cinalukast
208	n/a	n/a	-1.189	n/a	n/a	CC1(C)O[C@@](C)(C(=O)O)CC[C@H]1C(=O)O	(2R,5R)-2,6,6-trimethyloxane-2,5-dicarboxylic acid
n/a	n/a	0.29	n/a	1.772	n/a	C#CC(C)(C)N	3-Butyn-2-amine, 2-methyl-
29.4	n/a	6.025	-5.932	-4.011	n/a	S=C(SCc1ccccc1)SCc1ccccc1	Carbonotrithioic acid, bis(phenylmethyl) ester
-20.07	n/a	0.077	0.776	n/a	n/a	CN(C)CCCNCCC#N	3-{[3-(Dimethylamino)propyl]amino}propanenitrile
n/a	n/a	-0.212	-4.638	-8.782	n/a	C[Si](C)(c1ccccc1)[C@@H]1CC=C(CO)[C@H]1C(=O)O[C@@](O)(c1ccc([N+](=O)[O-])cc1)[C@@H](N)CO	n/a
n/a	280	n/a	n/a	n/a	-9.353	CCOC(=O)CSc1nc(C(C)(C)C)nn1C(=O)N(C)C	Triazamate
143.9	n/a	n/a	-7.236	-7.932	n/a	CC[C@@H]([C@H](C)OCc1ccccc1)N(N)C(=O)Nc1ccc(N2CCN(c3ccc(OC[C@@H]4CO[C@@](Cn5cncn5)(c5ccc(F)cc5F)C4)cc3)CC2)cc1	n/a
n/a	n/a	2.6	-3.106	n/a	n/a	CN(C)CCOC(c1ccc(Cl)cc1)c1ccccn1 (stereo not drawn)	Carbinoxamine

Extract of 3 entries:

structure (SMILES)	name	mp (°C)	boiling point (°C)	logP (octanol/water)	water solubility (log10 mol/L)	log vapor pressure (log10 mmHg)	Henry's law constant (log10 atm·m3/mol)
C[Si](C)(c1ccccc1)[C@@H]1CC=C(CO)[C@H]1C(=O)O[C@@](O)(c1ccc([N+](=O)[O-])cc1)[C@@H](N)CO	n/a	n/a	n/a	-0.212	-4.638	-8.782	n/a
COC(=O)CC(C)(C)C(Cl)CC(Cl)(Cl)C(F)(F)F (stereo not drawn)	n/a	-63.08	257.4	n/a	n/a	n/a	n/a
CC[C@@H]([C@H](C)OCc1ccccc1)N(N)C(=O)Nc1ccc(N2CCN(c3ccc(OC[C@@H]4CO[C@@](Cn5cncn5)(c5ccc(F)cc5F)C4)cc3)CC2)cc1	n/a	143.9	n/a	n/a	-7.236	-7.932	n/a

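OPERA's authors assembled the values from existing databases and did not measure them anew. The files give a single number for a compound and property, which may rest on several reports. Method, purity and exact conditions of the single measurements are not given. A value may pool stereoisomers or salt forms, and the file does not say which form was measured. Some entries may be limits or estimates that an upstream database listed as plain numbers.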

Values as listed in the OPERA 2.9 repository of K. Mansouri.